Source: PMC8463279 (Acta Pharmaceutica Sinica. B, 2021)

Target: T1, Pfbc1 (Plasmodium falciparum, UniProt Q02768)
T1 sequence (Q02768 1-376): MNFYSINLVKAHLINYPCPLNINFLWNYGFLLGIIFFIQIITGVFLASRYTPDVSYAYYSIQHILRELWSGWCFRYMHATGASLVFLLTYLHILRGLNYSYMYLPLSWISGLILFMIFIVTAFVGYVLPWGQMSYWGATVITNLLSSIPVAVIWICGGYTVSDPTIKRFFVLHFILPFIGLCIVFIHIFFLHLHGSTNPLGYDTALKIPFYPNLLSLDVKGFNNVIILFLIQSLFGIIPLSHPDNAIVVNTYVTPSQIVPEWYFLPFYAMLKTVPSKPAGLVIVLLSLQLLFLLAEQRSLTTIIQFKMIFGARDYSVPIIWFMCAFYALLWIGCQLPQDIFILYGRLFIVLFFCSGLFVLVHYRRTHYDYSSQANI
Test: Decylubiquinol-cytochrome c reductase activity of Pfbc1
Assay type: biochemical, P. falciparum

O=C1C(O)=C([C@H]2CC[C@H](c3ccc(Cl)cc3)CC2)C(=O)c2ccccc21 [Atovaquone, atovaquone, reference compound]
IC50: 870 pM
